This is an account of results in patent US10214531B2 (Institute for Drug Discovery, LLC, priority 2013, dated 2019).

Amino acid sequences for entries named in this document (tags omitted). Residues count along the entry.
UniProt Q9BZP6, 22-476 limits assumed: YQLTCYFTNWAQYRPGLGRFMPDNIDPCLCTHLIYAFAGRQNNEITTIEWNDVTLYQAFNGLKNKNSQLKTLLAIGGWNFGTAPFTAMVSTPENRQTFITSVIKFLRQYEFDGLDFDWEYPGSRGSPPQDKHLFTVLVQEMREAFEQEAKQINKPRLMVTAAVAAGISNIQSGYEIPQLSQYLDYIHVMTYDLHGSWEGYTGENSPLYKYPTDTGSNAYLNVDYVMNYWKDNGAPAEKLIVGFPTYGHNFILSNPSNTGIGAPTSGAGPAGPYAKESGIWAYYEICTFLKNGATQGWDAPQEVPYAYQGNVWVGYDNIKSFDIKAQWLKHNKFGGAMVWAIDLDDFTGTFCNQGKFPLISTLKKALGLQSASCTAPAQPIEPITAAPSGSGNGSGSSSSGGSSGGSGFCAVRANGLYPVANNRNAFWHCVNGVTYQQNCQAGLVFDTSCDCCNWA

SMILES strings stand for the structures. pIC50: −log10 of the molar value.

The assay concerns the target recombinant human AMCase (Homo sapiens, UniProt Q9BZP6). Nature of the assay: Human AMCase Activity Assay. It is filed as biochemical. The settings on record: read-out: Activity (IC50 value key); recombinant hAMCase, 4-methylumbelliferyl chitobioside substrate, citrate buffer pH 5.2, 37° C., 60 minutes; tested form: HCl.

The term pIC50 denotes the negative decadic logarithm of the IC50, by convention in mol/L. With `Nc1n[nH]c(N2CCC(NS(=O)(=O)Cc3ccc(Br)cc3)C(CO)C2)n1` (stereo not shown), the pIC50 was 5.00 to 6.00.
